Data as given in paper PMC11236828 (Bioresources and Bioprocessing, 2024).

Test system: O=CO
Test: purified protein
Settings: 50 mM sodium acetate pH 5.0, 25 °C, atmospheric oxygen, enzyme at 14 h

## Formate oxidase (FOx) (Aspergillus oryzae RIB40; S94T)
  Km: 97 ± 9.0 mM
  kcat: 4 s⁻¹
  kcat/Km: < 100 M⁻¹ s⁻¹
